Results from BindingDB's records for 18487043, “Use of receptor chimeras to identify small molecules with high affinity for the dynorphin A binding domain of the kappa opioid receptor” (2008).

The chains behind the UniProt entries cited, without tags or fusion partners. Where a name states a change or a piece, a line headed by the entry shows the natural chain unless it says otherwise.
UniProt P41145: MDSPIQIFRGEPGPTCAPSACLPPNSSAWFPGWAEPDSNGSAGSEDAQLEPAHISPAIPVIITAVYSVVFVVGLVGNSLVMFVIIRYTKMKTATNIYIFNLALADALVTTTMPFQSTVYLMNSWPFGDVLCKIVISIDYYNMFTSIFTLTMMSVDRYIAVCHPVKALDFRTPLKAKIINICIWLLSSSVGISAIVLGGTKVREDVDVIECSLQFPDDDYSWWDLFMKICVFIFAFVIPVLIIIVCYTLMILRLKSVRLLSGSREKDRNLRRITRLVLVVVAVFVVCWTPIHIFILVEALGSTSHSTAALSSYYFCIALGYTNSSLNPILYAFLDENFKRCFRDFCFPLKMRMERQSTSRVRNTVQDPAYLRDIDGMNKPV

Target: Kappa-type opioid receptor (Homo sapiens, UniProt P41145)
Experiment: Displacement of [3H]diprenorphine from human kappa opioid receptor expressed in CHO-K1 cells

CN(C(=O)Cc1ccc(Cl)c(Cl)c1)[C@H](CN1CCCC1)c1ccccc1
Ki: 44 pM
